For one molecule, IC50 results are on record in patent EP4624466A1, “DEGRADER FOR DECOMPOSING CMET PROTEIN, AND PHARMACEUTICAL COMPOSITION COMPRISING SAME” (Innocure Therapeutics, Inc., priority 2022, dated 2024).

The experiment has as its system MKN-45. The experiment can be described thus: Cell viability / antiproliferative assay (WST-8), MKN-45.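 Further: MKN-45 is a human gastric cancer line overexpressing c-MET, growth inhibition read as WST-8 formazan absorbance at 450 nm after 2 h dye incubation.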 To be noted: Homo sapiens, MKN-45, 72 h, read-out: MKN-45 IC50. (In general: Tetrazolium assays rely on reduction of a dye to a coloured formazan, in cell work by metabolically active cells.)

As usually defined, the IC50 is the concentration that inhibits the measured activity by half. On to `Cc1nn(C2CCC(=O)NC2=O)c(=O)c2cc(N3CCC(C(=O)NCCCNC(=O)CN4CCC(COc5cnc(-c6cccc(Cn7nc(-c8cccc(C#N)c8)ccc7=O)c6)nc5)CC4)CC3)ccc12` (stereo not shown) [ICT-0001238], for which the IC50 was below 100 nM.
